Measurements published in patent US20250235486A1, “Method of Producing Insulin-Producing Cells” (Monash University, priority 2022, published 2025).

Experiments:
[1] = tested on: Human pancreatic ductal epithelial cells; assay: qRT-PCR after 2- and 7-day EZH2 inhibitor stimulation of human pancreatic ductal epithelial cells; format: cell-based; conditions: GSK-126 10 μM, EPZ6438 1 μM, Triptolide 20 nM
[2] = tested on: Human pancreatic ductal epithelial cells; assay: Glucose stimulated insulin secretion assay (ELISA); format: cell-based; conditions: 2-day stimulation (FIG. 13d); GSK126 10 μM, EPZ6438 1 μM, Triptolide 20 nM; not observed in DMSO control
Protocol: 5×10^5 cells were seeded in 12-well plates and allowed to adhere for 24 hours. Given the relatively high concentration of insulin in KSFM, cells were washed and cultured with CMRL-complete (CMRL 1066supplemented with Antibiotic-Antimycotic [Gibco], and Glutamax [Gibco]) to reduce the background insulin concentration of the ELISA. Cells stimulated with EZH2 inhibitors or vehicle control (DMSO) for 2, or 7 days, following which they were washed with 2.8 mM glucose Krebs Buffer Solution (25 mM HEPES, 115 mM sodium chloride, 24 mM sodium hydrogen carbonate, 5 mM potassium chloride, 1 mM magnesium chloride heptahydrate, 0.1% bovine serum albumin, and 2.5 mM calcium chloride dihydrate made up in deionized water) two times, and incubated for 1 hour to obtain the low glucose (basal) insulin secretion. Next, cells were cultured in 28 mM (High) glucose Krebs Buffer solution and incubated for 1 hour to obtain the glucose stimulated insulin secretion. Supernatant was collected and Ultrasensitive Insulin ELISA (Mercodia) was used to determine the concentration of insulin according to manufacturer's instructions. Fold change of insulin secreted by cells were calculated by adjusting to cells stimulated with EZH2 inhibitors for insulin concentrations compared to control.

Compound: CCN(c1cc(-c2ccc(CN3CCOCC3)cc2)cc(C(=O)NCc2c(C)cc(C)[nH]c2=O)c1C)C1CCOCC1 [EPZ-6438, N-[(1,2-Dihydro-4,6-dimethyl-2-oxo-3-pyridinyl)methyl]-5-[ethyl(tetrahydro-2H-pyran-4-yl)amino]-4-methyl-4′-(4-morpholinylmethyl)[1,1′-biphenyl]-3-carboxamide]
- insulin transcripts, unprocessed heterogenous nuclear form (INS hnRNA) ([1]; 2 days): elevations
- insulin transcripts, unprocessed heterogenous nuclear form (INS hnRNA) ([1]; 7 days): maintained
- insulin concentration after incubation in high-glucose media (28 mM glucose, 1 hour) [2]: significant elevations
